{"source": "patent EP0795549A1", "about": "“Bis-aryloxy(amino)-triazinyl-oxy(amino)aryl derivatives, their preparation and their use as antiviral agents” (American Cyanamid Company, priority 1996, dated 1997)", "key": {"[1]": {"system": "human foreskin fibroblasts (HF)", "assay": "effect on cells: appearance of fixed, crystal violet-stained monolayer (HF)", "type": "cell-based", "parameters": "key: N, no effect on the appearance of the alcohol-fixed and crystal violet-stained cell monolayer at the indicated compound concentration.; L, lightening of the intensity of staining (compared to controls) of the alcohol-fixed and crystal violet-stained cell monolayer at the indicated compound concentration but not at half that concentration", "details": "at 75 µg/ml"}, "[2]": {"system": "vero cells", "assay": "effect on cells: appearance of fixed, crystal violet-stained monolayer (vero)", "type": "cell-based, African green monkey", "parameters": "key: N, no effect on the appearance of the alcohol-fixed and crystal violet-stained cell monolayer at the indicated compound concentration.; L, lightening of the intensity of staining (compared to controls) of the alcohol-fixed and crystal violet-stained cell monolayer at the indicated compound concentration but not at half that concentration", "details": "at 75 µg/ml"}}}
{"substance": "4',4-Bis-{4,6-bis-[3-(bis-carbamoylmethyl-1-sulfamoyl)-phenylamino]-[1,3,5]triazin-2-ylamino}-biphenyl-2,2'-dicarboxylic acid, disodium salt [Example 44]", "values": [{"measurement": "Effect on cells @ µg/ml indicated HF", "setting": "[1]", "value": "L@75"}, {"measurement": "Effect on cells @ µg/ml indicated Vero", "setting": "[2]", "value": "L@75"}]}
